Measured values reported in patent publication US10280170B2, “Substituted 4,5,6,7-tetrahydro-pyrazolo[1,5-a]pyrazine derivatives and 5,6,7,8-tetrahydro-4H-pyrazolo[1,5-a][1,4]diazepine derivatives as Ros1 inhibitors” (Janssen Pharmaceutica NV, priority 2014, dated 2019).

The chains behind the UniProt entries cited, without tags or fusion partners. Residues count along the entry.
UniProt P08922, whole entry: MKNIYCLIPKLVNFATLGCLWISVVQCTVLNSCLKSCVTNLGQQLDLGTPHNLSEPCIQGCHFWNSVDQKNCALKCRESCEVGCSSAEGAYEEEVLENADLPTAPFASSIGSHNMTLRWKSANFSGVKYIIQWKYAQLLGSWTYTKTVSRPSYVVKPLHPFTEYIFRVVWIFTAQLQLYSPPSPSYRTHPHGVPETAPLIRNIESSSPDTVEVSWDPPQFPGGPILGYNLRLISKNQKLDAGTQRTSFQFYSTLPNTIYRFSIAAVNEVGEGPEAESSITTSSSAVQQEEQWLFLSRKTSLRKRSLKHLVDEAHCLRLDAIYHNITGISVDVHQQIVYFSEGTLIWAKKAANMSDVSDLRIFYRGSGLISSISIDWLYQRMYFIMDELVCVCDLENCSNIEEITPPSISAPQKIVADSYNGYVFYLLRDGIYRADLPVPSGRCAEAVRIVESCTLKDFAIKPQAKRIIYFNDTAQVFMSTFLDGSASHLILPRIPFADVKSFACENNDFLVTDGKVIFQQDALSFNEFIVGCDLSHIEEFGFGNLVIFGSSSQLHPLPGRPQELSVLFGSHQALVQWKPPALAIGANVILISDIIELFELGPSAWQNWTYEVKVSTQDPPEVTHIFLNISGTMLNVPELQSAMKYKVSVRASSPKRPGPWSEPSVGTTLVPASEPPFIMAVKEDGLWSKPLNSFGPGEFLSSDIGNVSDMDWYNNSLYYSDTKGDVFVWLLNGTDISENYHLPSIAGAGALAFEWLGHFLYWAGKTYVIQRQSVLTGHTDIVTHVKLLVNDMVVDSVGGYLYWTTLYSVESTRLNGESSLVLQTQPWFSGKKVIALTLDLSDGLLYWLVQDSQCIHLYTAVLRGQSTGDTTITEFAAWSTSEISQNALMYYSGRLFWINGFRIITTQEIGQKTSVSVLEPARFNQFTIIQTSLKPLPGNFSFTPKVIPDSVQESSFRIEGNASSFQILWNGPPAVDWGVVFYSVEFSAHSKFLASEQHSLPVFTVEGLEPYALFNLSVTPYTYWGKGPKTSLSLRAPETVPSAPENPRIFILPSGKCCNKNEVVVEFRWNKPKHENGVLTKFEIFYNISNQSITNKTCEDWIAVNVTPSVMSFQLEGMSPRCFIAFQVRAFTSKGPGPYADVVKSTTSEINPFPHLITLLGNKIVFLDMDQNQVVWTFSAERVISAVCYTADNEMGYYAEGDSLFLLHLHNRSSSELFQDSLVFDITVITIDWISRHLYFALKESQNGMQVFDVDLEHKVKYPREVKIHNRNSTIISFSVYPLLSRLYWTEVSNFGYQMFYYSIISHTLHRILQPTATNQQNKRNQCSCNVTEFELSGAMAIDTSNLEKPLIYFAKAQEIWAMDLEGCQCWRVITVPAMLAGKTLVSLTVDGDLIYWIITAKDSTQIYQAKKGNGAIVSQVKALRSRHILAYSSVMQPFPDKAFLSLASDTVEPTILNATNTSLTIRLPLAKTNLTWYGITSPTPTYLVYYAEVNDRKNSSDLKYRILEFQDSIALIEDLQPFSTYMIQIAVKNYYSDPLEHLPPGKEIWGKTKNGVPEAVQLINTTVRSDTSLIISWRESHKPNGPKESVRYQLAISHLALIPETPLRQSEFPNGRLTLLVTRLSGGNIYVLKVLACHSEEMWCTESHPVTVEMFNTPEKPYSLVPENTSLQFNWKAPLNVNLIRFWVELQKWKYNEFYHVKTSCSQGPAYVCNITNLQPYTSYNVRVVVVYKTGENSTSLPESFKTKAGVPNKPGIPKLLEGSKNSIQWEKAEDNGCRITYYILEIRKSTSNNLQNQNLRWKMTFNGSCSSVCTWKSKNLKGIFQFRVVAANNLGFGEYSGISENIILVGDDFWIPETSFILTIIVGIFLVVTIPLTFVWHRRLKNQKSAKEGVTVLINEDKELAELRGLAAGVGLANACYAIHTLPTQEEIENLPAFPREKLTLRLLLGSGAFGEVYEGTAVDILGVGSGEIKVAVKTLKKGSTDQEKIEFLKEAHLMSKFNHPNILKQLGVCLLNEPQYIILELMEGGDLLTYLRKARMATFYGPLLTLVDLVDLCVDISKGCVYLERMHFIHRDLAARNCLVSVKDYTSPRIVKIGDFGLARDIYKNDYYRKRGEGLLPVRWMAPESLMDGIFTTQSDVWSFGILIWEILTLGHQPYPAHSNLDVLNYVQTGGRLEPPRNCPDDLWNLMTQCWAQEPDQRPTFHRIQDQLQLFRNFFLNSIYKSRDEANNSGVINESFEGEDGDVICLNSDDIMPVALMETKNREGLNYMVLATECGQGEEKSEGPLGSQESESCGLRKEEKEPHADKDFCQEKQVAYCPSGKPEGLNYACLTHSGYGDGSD
UniProt P08922, 28-2347 limits assumed: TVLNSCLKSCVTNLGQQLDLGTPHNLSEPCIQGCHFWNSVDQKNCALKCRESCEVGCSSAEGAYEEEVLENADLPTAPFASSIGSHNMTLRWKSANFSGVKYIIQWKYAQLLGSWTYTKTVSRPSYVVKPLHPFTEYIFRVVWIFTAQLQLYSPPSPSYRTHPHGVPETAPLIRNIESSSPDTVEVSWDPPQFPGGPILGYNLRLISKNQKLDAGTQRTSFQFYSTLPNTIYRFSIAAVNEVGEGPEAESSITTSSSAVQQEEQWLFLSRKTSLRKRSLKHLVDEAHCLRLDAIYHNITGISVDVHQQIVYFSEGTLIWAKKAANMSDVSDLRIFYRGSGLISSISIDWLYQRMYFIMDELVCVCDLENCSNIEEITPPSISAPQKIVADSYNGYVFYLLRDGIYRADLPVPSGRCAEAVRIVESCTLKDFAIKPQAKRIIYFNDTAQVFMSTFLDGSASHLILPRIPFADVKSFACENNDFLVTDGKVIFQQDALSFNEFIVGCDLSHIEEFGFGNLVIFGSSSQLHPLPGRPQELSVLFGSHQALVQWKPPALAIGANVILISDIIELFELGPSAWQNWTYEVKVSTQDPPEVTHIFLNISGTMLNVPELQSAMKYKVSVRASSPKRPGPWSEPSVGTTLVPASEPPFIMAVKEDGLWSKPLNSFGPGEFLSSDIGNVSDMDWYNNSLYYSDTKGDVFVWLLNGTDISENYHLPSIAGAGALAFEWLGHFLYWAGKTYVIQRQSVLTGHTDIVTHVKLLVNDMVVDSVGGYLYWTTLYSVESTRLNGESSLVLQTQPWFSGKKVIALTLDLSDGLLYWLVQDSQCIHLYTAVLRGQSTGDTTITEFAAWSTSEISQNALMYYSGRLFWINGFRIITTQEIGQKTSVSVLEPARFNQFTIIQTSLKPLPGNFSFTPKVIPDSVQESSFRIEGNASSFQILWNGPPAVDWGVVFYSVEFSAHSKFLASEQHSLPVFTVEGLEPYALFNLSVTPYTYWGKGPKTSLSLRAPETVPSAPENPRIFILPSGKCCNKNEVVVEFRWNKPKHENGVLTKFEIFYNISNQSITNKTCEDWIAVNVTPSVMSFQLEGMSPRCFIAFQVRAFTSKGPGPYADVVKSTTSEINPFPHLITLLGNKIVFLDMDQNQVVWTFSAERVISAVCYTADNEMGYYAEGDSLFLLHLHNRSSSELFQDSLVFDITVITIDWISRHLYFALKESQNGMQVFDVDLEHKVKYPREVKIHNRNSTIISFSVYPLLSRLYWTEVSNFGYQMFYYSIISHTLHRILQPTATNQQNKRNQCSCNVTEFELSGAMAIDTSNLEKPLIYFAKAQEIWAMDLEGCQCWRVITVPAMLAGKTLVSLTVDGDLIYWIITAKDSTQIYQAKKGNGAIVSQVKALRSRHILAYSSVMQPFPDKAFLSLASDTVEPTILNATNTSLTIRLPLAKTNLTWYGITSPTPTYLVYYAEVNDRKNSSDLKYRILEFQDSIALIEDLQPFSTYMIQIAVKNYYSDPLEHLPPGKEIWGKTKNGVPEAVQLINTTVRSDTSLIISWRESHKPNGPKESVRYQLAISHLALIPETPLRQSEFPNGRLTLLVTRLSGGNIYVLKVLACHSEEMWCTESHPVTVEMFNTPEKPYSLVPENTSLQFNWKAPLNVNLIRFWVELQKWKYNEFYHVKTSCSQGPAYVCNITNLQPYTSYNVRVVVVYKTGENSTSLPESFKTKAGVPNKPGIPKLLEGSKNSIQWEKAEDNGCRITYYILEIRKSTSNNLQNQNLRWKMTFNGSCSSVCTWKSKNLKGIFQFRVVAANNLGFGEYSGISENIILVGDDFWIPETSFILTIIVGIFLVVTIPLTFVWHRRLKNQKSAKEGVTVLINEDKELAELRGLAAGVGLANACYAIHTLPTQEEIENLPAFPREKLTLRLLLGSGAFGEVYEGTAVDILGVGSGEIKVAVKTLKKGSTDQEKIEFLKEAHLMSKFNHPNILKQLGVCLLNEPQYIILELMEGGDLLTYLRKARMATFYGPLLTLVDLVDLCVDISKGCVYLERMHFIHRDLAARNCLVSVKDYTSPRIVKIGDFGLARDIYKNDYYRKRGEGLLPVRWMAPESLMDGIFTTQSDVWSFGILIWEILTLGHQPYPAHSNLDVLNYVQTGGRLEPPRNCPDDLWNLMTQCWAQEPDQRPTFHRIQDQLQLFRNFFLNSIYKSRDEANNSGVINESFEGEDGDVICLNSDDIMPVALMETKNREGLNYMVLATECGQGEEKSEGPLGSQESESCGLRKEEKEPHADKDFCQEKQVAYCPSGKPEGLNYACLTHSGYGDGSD

What was measured:
[1] = system: Ba/F3 cells containing Ros1 wild-type protein + IL-3; test: Ba/F3-Ros1 cell proliferation counter-screen, wild-type protein in the presence of 10 ng/ml murine IL-3; assay type: cell-based
Method: (§1) This assay was carried out with Ba/F3 cells containing three different versions of Ros1: the wild-type protein, protein with a mutation at the gatekeeper residue (L2026M), and protein with a mutation identified in a tumor from a patient that became resistant to crizotinib (Xalkori®) treatment (G2032R). Compounds were solubilized in 100% DMSO (dimethyl sulfoxide) and sprayed into polystyrene, tissue culture treated 384-well plates. A 50 μl volume of cell culture medium (phenol red free RPMI-1640, 10% FBS (fetal bovine serum), 2 mM L-Glutamine) containing 20000 Ba/F3-Ros1 cells was added to each well and the plates were placed in an incubator at 37° C. and 5% CO2. After 24 hours, 10 μl of Alamar Blue solution (0.5 mM K3Fe(CN)6, 0.5 mM K4Fe(CN)6, 0.15 mM Resazurin and 100 mM Phosphate Buffer) was added to the wells, incubated for 4 hours at 37° C. and 5% CO2 before RFU's (Relative Fluorescence Units) (ex. 540 nm., em. 590 nm.) were measured in a fluorescence plate reader.
As a counter-screen the same experiment was performed for the wild-type protein in the presence of 10 ng/ml murine IL-3.

Ros1 enzyme = Ros1 enzyme (Homo sapiens, UniProt P08922); test: Ros1 enzymatic assay; assay type: biochemical
Method: Compounds were spotted onto white 384-well Proxiplate plus plates (Perkin Elmer) to which 5 μl of enzyme mix (0.5 μg/ml Ros1 enzyme, 50 mM Tris-HCl pH7.5, 1 mM EGTA, 10 mM MgCl2, 0.01% Tween-20) and 5 μl of substrate mix (6 μg/ml IRS-Tide [American Peptide Company], 20 μM ATP, 13.33 μCi/ml ATP (adenosine 5′-triphosphate) P^33, 50 mM Tris-HCl pH7.5, 1 mM EGTA (ethylene glycol-bis(2-aminoethylether)-N,N,N′,N′-tetraacetic acid), 10 mM MgCl2, 0.01% Tween-20) were added. After incubation for 120 minutes at room temperature, 10 μl of stop reaction buffer (5 mM EDTA, 50 μM ATP, 0.1% BSA (bovine serum albumin), 0.1% Triton X-100, 50 mM Tris-HCl pH7.5, 1 mM EGTA, 10 mM MgCl2, 0.01% Tween-20) containing 2 mg/ml streptavidin coupled polystyrene imaging beads (Amersham Biosciences) was added and incubated for 15 minutes at room temperature. Plates were centrifuged for 3 minutes at 1500 rpm and signals detected in a LEADseeker imaging system (GE).

[2] = target: Ba/F3 cells containing Ros1 wild-type protein (Homo sapiens, UniProt P08922, cells depend on it, form not given); test: Ba/F3-Ros1 cell proliferation assay, wild-type Ros1; assay type: cell-based, murine; details: without IL-3
Method: Ba/F3-Ros1 Cell Proliferation Assay
as §1

ROS1 pIC50 (Ros1 enzyme): 5.4 | BaF3-ROS1-IL3 pIC50 [2]: 5.7
SMILES: CC(C)(C)OC(=O)NCc1cccc(COc2ccc(-c3c(-c4ccncc4)nn4c3C(=O)NCC4)cc2)c1
BaF3-ROS1 + IL3 pIC50 [1]: <5
